Measured values as given in ChEMBL document CHEMBL6087457.
The source made the active and inactive calls. The calls are words filed in the database; no cut-off is given here.

The chains behind the UniProt entries cited, without tags or fusion partners. Where a name states a change or a piece, a line headed by the entry shows the natural chain unless it says otherwise.
UniProt P53668: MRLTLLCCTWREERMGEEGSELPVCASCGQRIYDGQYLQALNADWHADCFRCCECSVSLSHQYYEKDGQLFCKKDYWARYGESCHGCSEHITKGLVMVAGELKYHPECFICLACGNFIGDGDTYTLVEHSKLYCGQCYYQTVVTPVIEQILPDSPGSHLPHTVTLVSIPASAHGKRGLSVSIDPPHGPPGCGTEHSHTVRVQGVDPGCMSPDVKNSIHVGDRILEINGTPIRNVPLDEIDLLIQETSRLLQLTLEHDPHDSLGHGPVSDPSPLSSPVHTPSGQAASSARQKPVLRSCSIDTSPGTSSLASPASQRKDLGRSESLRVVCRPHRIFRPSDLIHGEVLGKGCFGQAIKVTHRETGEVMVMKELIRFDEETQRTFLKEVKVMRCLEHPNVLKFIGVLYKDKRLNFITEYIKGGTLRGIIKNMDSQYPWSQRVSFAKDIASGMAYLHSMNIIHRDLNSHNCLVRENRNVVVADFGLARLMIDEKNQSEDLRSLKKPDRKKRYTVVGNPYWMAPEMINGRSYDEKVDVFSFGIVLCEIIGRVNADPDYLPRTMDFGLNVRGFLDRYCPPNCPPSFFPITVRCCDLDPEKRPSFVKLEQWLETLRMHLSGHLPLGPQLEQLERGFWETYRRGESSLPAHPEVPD

Tests used:
[1] = molecular target: LIM domain kinase 1 (Mus musculus) (UniProt P53668); assay: Ex vivo inhibition of LIMK in hippocampus of mouse assessed as reduction in p-cofilin level at 3 uM incubated for 30 mins by Western blot analysis; assay type: functional
Procedure, shortened: (§1)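 Acute hippocampal slices from P7–9 WT and Fmr1 KO mice, incubated with vehicle (DMSO) or 3 μM LIMK inhibitor. p-Cofilin and total cofilin measured by Western blot and expressed as a p-cofilin/cofilin ratio. n = 2–4 animals per group. Significance by one-way ANOVA with Dunnett's multiple comparisons test.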

[2] = molecular target: LIM domain kinase 1 (Mus musculus) (UniProt P53668); assay: Ex vivo inhibition of LIMK in hippocampus of Fmr1 KO mouse model of FXS assessed as reduction in p-cofilin level at 3 uM incubated for 30 mins by Western blot analysis; assay type: functional; procedure, shortened: as §1

`O=C(c1ccc(S(=O)(=O)Nc2ccccc2)cc1)N(Cc1ccc(NCCO)cc1)CC1CC1` was tested, and the inhibition [1] was “Active” and the inhibition [2] was “Active”.
